Tests used:
[1] = test system: bEnd.3 mus musculus brain endothelial cells; experiment: In vitro binding and internalization by flow cytometry, endothelial cells; assay type: cell-based; details: LPS-stimulated cells, 30 ng; for binding to endothelial cells: 20 min at 4° C.; for internalization by endothelial cells: 20 min at 37° C.
Experimental: (§1) The in vitro experiments were performed with bEnd.3 mus musculus brain endothelial cells (CRL-2299™) and CT26.WT mus musculus colon carcinoma cells (CRL-2638™) provided by ATCC®. Those cells were cultured in DMEM-Dulbecco's Modified Eagle Medium (10566-016, Gibco Thermo Fisher) added by 10% of fetal bovine serum (10500056, Gibco Thermo Fisher) and 1% of Penicillin-Streptomycin (5,000 U/mL, 15070063, Gibco Thermo Fisher) antibiotics. A suspension of Lipopolysaccharide stimulated cells (0.1 mg/mL, 4 h, 37° C.), were collected and prepared in binding buffer (50 mM Tris HCl, 150 mM NaCl, 1 mM CaCl2, 1 mM MgCl2, 1 mM MnCl2, 1% BSA in water) at 500 000 cell per milliliter. An incubation of 1 h at 4° C. was realized in order to saturate unspecific binding. For evaluation of E-selectin expression (FIG. 4A) cells were incubated successively with purified rat anti-Mouse CD62E antibody (1 μg/mL, 550290 BD Pharmingen™) in PBS/BSA 1% and with goat anti-rat IgG-Alexa Fluor®488 (1 μg/ml, ab150157 Abcam) for 30 min a 4° C. To study cellular binding and internalization, cells were incubated with 30 ng of HSA or HSA-SLX for 20min at 4° C. (FIG. 4B-C) or 37° C. (FIG. 4D).
(§2) After those different steps, cells were washed twice with binding buffer and analyzed by flow cytometry (Guava® easyCyte Millipore).

[2] = test system: CT26.WT mus musculus colon carcinoma cells; experiment: In vitro binding and internalization by flow cytometry, tumor cells; assay type: cell-based; details: LPS-stimulated cells, 30 ng; for binding to tumor cells: 20 min at 4° C.
Experimental: as §1, §2

[3] = Size exclusion chromatography/UV: distribution of monomers, dimers, trimers and oligomers; assay type: physicochemical; details: SEC, UV 280 nm, FIG. 10
Experimental: Size exclusion chromatography/UV was performed to evaluate the distribution of monomers, dimers, trimers and oligomers of the optical imaging agents according to the present invention.
Separation and analysis were performed on a LC-10 liquid chromatography system from Shimadzu (Kyoto, Japan) natively equipped with a vacuum degasser, an auto-sampler, a UV absorbance detector and refractive index detector (RID). The size exclusion chromatography stationary phase was a Shodex Protein LW 803 column provided by Showa Denko (Japan). Between the auto-sampler and HPLC pump, mobile phase was filtered in-line by a 0.1 μm durapore PVDF membrane in a PEEK in-line filter. Detection was realized using UV absorbance at a wavelength of 280 nm. Concomitantly, refractive index quantifications were performed using white light. Mobile phase was CH3COONH4 50 mM NaN3 0.03% in milli-Q water degassed by vacuum pump and filtered on stericup filter units. MALS detection was achieved on a three angle mini-Dawn Treos II from Wyatt Technology equipped with a 658 nm wavelength laser. Data analysis was achieved on Astra 7.1, Wyatt Technology.

| Substance | binding to endothelial cells [1] | internalization by endothelial cells [1] | binding to tumor cells [2] | distribution into monomers, dimers, trimers or oligomers (aggregation) [3] | internalization by tumor cells ([2]; 20 min at 37° C.) |
| --- | --- | --- | --- | --- | --- |
| HSA-SLX: Human serum albumin labelled with sulfo-cyanine 5 and grafted with Sialyl Lewis X via maleimide/iminothiolane linker | bind to both type of cells | internalized mostly by endothelial cells | bind to both type of cells | exist mainly in the form of monomers and form very few oligomers |  |
| non-functionalized albumin: Cyanine-labelled albumin which does not contain any targeting portion (no BIOVECTOR), used as control | neither bind | nor is internalized | neither bind |  | nor is internalized |
